Tested on: rat anti-collagen IgG1 antibodies
Assay: Rat anti-collagen IgG1 antibodies in serum of CIA rats at day 21
Assay type: in vivo, Lewis rat
Conditions: Group 3 (CIA + Dexamethasone), day 21, per animal

## C[C@@H]1C[C@H]2[C@@H]3CCC4=CC(=O)C=C[C@]4(C)[C@@]3(F)[C@@H](O)C[C@]2(C)[C@@]1(O)C(=O)CO [dexamethasone]
  Final Rat Anti-Collagen IgG1 Antibody Con.: 11736.83 units/ml

Source: patent US20250263370A1 (Tay Therapeutics Limited, priority 2022, published 2025)
